{"source": "ChEMBL document CHEMBL5247656", "about": "“Discovery of a Potent, Cooperative, and Selective SOS1 PROTAC ZZ151 with In Vivo Antitumor Efficacy in KRAS-Mutant Cancers” (J Med Chem, 2023)", "target": "T1, Son of sevenless homolog 1 (Homo sapiens) (UniProt Q07889)", "T1 sequence (whole entry)": "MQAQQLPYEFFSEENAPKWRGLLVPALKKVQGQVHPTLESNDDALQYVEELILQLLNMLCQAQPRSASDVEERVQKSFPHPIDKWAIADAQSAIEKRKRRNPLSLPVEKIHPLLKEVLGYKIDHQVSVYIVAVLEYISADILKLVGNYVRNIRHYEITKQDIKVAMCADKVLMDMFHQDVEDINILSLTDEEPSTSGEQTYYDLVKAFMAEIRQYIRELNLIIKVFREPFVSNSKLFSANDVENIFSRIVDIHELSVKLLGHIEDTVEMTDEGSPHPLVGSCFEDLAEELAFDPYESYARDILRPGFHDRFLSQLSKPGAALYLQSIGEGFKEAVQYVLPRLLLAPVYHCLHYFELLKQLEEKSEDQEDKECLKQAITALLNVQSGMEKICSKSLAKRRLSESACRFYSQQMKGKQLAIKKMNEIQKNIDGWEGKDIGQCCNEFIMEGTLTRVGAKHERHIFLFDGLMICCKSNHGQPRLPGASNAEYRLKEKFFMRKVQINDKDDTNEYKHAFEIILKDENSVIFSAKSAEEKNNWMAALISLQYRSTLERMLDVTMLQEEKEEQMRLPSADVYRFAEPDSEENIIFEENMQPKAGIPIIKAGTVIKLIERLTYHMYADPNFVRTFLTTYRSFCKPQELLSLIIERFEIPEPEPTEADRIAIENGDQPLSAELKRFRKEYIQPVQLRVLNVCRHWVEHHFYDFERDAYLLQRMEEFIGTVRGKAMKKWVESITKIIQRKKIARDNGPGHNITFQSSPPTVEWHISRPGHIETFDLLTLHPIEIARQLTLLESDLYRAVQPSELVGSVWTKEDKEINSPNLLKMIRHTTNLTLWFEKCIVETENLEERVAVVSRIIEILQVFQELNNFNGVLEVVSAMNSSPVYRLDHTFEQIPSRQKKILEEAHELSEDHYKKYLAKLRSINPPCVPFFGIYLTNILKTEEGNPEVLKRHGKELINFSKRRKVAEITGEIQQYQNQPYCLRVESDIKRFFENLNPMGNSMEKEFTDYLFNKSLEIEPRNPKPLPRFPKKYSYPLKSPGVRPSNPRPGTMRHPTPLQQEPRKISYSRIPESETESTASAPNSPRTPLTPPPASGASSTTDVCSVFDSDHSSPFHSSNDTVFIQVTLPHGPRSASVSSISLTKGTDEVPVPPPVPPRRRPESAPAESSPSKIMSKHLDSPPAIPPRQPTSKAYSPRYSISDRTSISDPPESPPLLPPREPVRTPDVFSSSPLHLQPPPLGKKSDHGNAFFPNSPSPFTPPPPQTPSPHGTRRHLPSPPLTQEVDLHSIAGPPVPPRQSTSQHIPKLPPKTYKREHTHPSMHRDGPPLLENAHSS", "assay": "Co-operativity factor, ratio of Kd for binding affinity to GST-tagged human SOS1 (564 to 1049 reisudes) expressed in Escherichia coli BL21 (DE3) cells assessed as binary complex formation to Kd for binding affinity to GST-tagged human SOS1 (564 to 1049 residues) expressed in Escherichia coli BL21 (DE3) cells assessed as ternary complex formation in the presence of 6His tagged human VCB", "data": [{"molecule": "COc1cc2nc(C)nc(N[C@H](C)c3cc(N)cc(C(F)(F)F)c3)c2cc1C1CCN(C(=O)CCCCCC(=O)N[C@H](C(=O)N2C[C@H](O)C[C@H]2C(=O)N[C@@H](C)c2ccc(-c3scnc3C)cc2)C(C)(C)C)CC1", "values": [{"measurement": "Ratio", "result": 11.4}]}]}
